Data as given in patent US8563258B2, “Allergy test based on flow cytometric analysis” (Buhlmann Laboratories AG, priority 2007, dated 2013).

Tested on: basophils
Conditions: 0.2 to 200 ng/ml tested (final dilution); Protocol 1

B1: IL-3: interleukin 3, basophil priming reagent in the Stimulation Buffer (protein, UniProt P08700 20-152, looked up)
Interleukin-3: APMTQTTPLKTSWVNCSNMIDEIITHLKQPPLPLLDFNNLNGEDQDILMENNLRRPNLEAFNRAVKSLQNASAIESILKNLLPCLPLATAAPTRHPIHIKDGDWNEFRRKLTFYLKTLENAQAQQTTLSLAIF
- IL-3 concentration giving optimum stimulation (CD63 expression): 2 ng/mL
